One compound from publication PMC5736936, “Xylopine Induces Oxidative Stress and Causes G2/M Phase Arrest, Triggering Caspase-Mediated Apoptosis by p53-Independent Pathway in HCT116 Cells” (Oxidative Medicine and Cellular Longevity, 2017) can be followed below.

The subject of this experiment is SCC9 (human oral squamous cell carcinoma). The experiment in a line: Cytotoxic activity, alamarBlue assay, 72 h. The following applies: IC50(PBMC)/IC50(SCC-9). The experiment is classed as cell-based. From the text:
MCF7 (human breast carcinoma), HCT116 (human colon carcinoma), HepG2 (human hepatocellular carcinoma), SCC-9 (human oral squamous cell carcinoma), HSC-3 (human oral squamous cell carcinoma), HL-60 (human promyelocytic leukemia), K-562 (human chronic myelogenous leukemia), B16-F10 (murine melanoma), MRC-5 (human lung fibroblast), WT SV40 MEF (wild-type immortalized mouse embryonic fibroblast), and BAD KO SV40 MEF (BAD gene knockout immortalized mouse embryonic fibroblast) cell lines were obtained from the American Type Culture Collection (ATCC, Manassas, VA, USA). Cells were cultured in complete medium with appropriate supplements as recommended by ATCC. All cell lines were tested for mycoplasma using the Mycoplasma Stain Kit (Sigma-Aldrich) to validate the use of cells free from contamination. Primary cell culture of peripheral blood mononuclear cells (PBMC) was obtained by standard Ficoll density protocol. The Research Ethics Committee of the Oswaldo Cruz Foundation (Salvador, BA, Brazil) approved the experimental protocol (number 031019/2013). […]
Cell viability was quantified using the alamarBlue assay according to Ahmed et al.. […] Absorbance at 570 nm and 600 nm was measured using the SpectraMax 190 Microplate Reader (Molecular Devices, Sunnyvale, CA, USA), and the drug effect was quantified as the percentage of control absorbance.
Background: Resazurin is reduced to fluorescent resorufin, in cell work by metabolically active cells.

`COc1cccc2c1C(=O)c1c(O)c3c(c(O)c1C2=O)C[C@@](O)(C(=O)CO)C[C@@H]3O[C@H]1C[C@H](N)[C@H](O)[C@H](C)O1` [DOX, doxorubicin] gave a Selectivity index of 10.4.
